# System: A. franciscana larvae
# Test: Untargeted LC-MS/MS metabolomics of larvae at sublethal concentrations
# Format: in vivo, Artemia franciscana
# Settings: LC1 and LC10, 24 and 48 h, vs vehicle control
smiles,measurement,value
"CCCC(CCC)C(=O)O [VPA, valproic acid]","Abundance of L-glutamine, L-asparagine, dihydrothymine and dihydrouracil",moderate increases
same,Abundance of L-serine and isobutyryl-L-carnitine,increase

# Reference: paper PMC12120116 (Scientific Reports, 2025)
